Measured values as given in article PMC9082524, “Aromatic heterocycle galectin-1 interactions for selective single-digit nM affinity ligands” (RSC Advances, 2018).

Amino acid sequences for entries named in this document (tags omitted).
UniProt P17931, whole entry: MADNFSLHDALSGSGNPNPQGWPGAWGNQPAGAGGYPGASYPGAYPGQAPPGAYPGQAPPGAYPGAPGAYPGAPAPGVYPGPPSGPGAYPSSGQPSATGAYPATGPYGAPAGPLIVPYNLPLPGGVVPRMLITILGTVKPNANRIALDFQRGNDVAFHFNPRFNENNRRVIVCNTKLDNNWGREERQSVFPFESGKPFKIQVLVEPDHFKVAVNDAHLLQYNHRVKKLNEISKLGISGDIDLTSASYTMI

Biological target: galectin-3 (Homo sapiens, UniProt P17931)
Assay: Competitive fluorescence polarization, galectin-3 (performed as described in ref 13)

Row | Compound | Kd
1 | Cc1ccc(S[C@@H]2O[C@H](CO)[C@H](O)[C@H](n3cc(-c4cccs4)nn3)[C@H]2O)cc1 [compound 6, p-Methylphenyl 3-deoxy-3-[4-(thien-2-yl)-1H-1,2,3-triazol-1-yl]-1-thio-β-D-galactopyranoside] | 180 ± 10 µM
2 | Cc1ccc(S[C@@H]2O[C@H](CO)[C@H](O)[C@H](n3cc(-c4ccsc4)nn3)[C@H]2O)cc1 [compound 7, p-Methylphenyl 3-deoxy-3-[4-(thien-3-yl)-1H-1,2,3-triazol-1-yl]-1-thio-β-D-galactopyranoside] | 200 ± 10 µM
